Test system: hypersensitivity following acute fentanyl exposure
Settings: rat, in vivo

Q: Which “dose dependence (two-way repeated measures ANOVA)” value does the source give for `O=C(c1ccccc1)c1ccc2n1CCC2C(=O)O` (centres unmarked) [ketorolac] here?
A: dose-dependent effect

Q: And the “duration of increased withdrawal threshold after injection” value?
A: 30 to 60 min

From US20030181426A1, “Compositions and methods for treating pain using cyclooxygenase-1 inhibitors” (priority 2002, published 2003)
